From patent US7803407B2 (priority 1997, dated 2010)

Details: for shelf-life stability of 300 ppm silver citrate: FIG. 5, 1 to 4 weeks

Substance: silver citrate
- shelf-life stability (1.0% citric acid solution, pH 6.0, FIG. 5, 1, 2, 3 and 4 weeks): not stable at high concentrations
- shelf-life stability of 300 ppm silver citrate (1.0% citric acid solution): did not remain
- shelf-life stability of 300 ppm silver citrate (10% citric acid solution): stable

Like-named read-outs stand apart in the source and are kept apart here.
